The source of these data is ChEMBL document CHEMBL5357012, “Dual N6/C7-Substituted 7-Deazapurine and Tricyclic Ribonucleosides with Affinity for G Protein-Coupled Receptors” (ACS Med Chem Lett, 2024).

Chains of the proteins cited; added tags and fusions are not shown.
UniProt Q5BJF2, whole entry: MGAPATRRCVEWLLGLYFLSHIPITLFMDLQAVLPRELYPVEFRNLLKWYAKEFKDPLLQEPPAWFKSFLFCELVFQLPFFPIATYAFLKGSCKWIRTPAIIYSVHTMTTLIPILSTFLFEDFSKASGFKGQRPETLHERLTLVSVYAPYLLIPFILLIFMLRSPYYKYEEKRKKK

As a reminder, the inhibition is the relative decrease from the control value, in per cent.

The target in the test is Sigma intracellular receptor 2 (Homo sapiens) (UniProt Q5BJF2). As to the kind of experiment: Inhibition of human sigma 2 receptor at 10 uM by microbeta scintillation counting method relative to control.

Each structure is given as a SMILES string. A value given as a limit tells only on which side of the number the result lay.

Turning to `OC[C@H]1O[C@@H](n2cc(C(F)(F)F)c3c(NCc4cccc(Cl)c4)ncnc32)[C@H](O)[C@@H]1O`, the inhibition is under 50%.
In turn, `OC[C@H]1O[C@@H](n2nc3c4c(ncnc42)N(Cc2ccccc2)C=C3)[C@H](O)[C@@H]1O` returned an inhibition of under 50%.
Regarding `OC[C@H]1O[C@@H](n2cc(C(F)(F)F)c3c(NCc4ccccc4)ncnc32)[C@H](O)[C@@H]1O`, the inhibition is under 50%.
With `OC[C@H]1O[C@@H](n2cc(C(F)(F)F)c3c(NCc4ccccc4F)ncnc32)[C@H](O)[C@@H]1O`, the inhibition is under 50%.
Take `OC[C@H]1O[C@@H](n2cc(C(F)(F)F)c3c(NCc4ccc(Cl)cc4)ncnc32)[C@H](O)[C@@H]1O`: the inhibition is under 50%.
